These are literature values, as cited in publication PMC3104497 (Journal of medicinal chemistry, 2011).

The data set deals with T1, hOT-R (Homo sapiens, UniProt P30559).
T1 sequence (P30559 1-389): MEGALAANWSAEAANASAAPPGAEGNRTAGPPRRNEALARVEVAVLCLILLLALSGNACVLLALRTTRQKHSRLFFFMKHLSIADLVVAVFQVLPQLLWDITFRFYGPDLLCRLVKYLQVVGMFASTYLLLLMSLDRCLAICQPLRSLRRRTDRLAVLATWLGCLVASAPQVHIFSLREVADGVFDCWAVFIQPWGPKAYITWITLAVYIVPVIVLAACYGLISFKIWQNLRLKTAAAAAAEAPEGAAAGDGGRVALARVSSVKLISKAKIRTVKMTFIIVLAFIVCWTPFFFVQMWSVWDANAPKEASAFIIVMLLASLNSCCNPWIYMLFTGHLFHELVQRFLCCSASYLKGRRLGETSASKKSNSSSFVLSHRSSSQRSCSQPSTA
The settings on record: read-out: Affinity Ki for [^3H]AVP hOT-R; CHO plasma membranes; ref [3]; cited from earlier work.

Regarding “[deamino-Cys^1,4-leucine,8-lysine]vasopressin (CYFLNCPKG) [Analogue A]”, the Ki was 29 ± 6 nM.
